# Measured values as given in patent US6825205B2 (priority 2002, dated 2004).
# Amino acid sequences for entries named in this document (tags omitted).
# UniProt P35372, whole entry, species assumed: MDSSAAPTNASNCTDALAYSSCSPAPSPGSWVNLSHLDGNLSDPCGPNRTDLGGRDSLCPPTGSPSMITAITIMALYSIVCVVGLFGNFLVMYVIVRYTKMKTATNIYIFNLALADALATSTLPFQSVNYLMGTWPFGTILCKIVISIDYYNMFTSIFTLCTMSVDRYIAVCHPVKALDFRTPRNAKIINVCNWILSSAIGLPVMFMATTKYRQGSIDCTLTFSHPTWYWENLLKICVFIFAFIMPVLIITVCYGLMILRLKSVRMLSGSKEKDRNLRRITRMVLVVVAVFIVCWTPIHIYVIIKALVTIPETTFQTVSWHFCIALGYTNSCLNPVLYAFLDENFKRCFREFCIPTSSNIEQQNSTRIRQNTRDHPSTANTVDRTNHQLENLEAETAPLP
# Target: μ opioid receptor (μ membrane protein) (Homo sapiens, UniProt P35372)
# Format: biochemical
smiles,measurement,value
"CN1CC[C@]23c4c5ccc(O)c4O[C@H]2C(=O)CC[C@H]3[C@H]1C5 [Hydromorphone, reference compound]",GTP-γ-S Activity/Efficacy % DAMGO,46 ± 4 % DAMGO
